The data set is described as follows: Brain delivery in mouse, IVIS live imaging. It counts as in vivo, Athymic Nude-Foxn1nu female mice. The note with it: 10 mg/kg anti-HER2-Cy5.5 equivalent, tail vein i.v. bolus; live images at 8 hour. As for the experimental part: Antibody drugs cannot penetrate BBB into brain parenchyma efficiently. Antibody drugs show similar structure, composed with Fab and Fc region, and molecular size (near 150 kDa).
Athymic Nude-Foxn1^nu female mice at the age of 6 weeks were used, the mice were divided into two groups. One group (n=3) received 10 mg/kg anti-HER2-Cy5.5 through tail vein i.v. bolus as control. The other group (n=3) received equivalent anti-HER2-Cy5.5 dose in MINC-anti-HER2-Cy5.5 via tail vein i.v. bolus.

The record followed here is patent US20260097130A1, “METHOD FOR TREATING NEURODEGENERATIVE DISEASES” (Suntec Medical, Inc., priority 2023, published 2026).

As to “anti-HER2-Cy5.5: anti-HER2 antibody (trastuzumab) reacted with Cy5.5-NHS ester”, the “fluorescence signal in the brain region” value is “not”.
